Test results taken from patent US20240343733A1, “COMPOUNDS FOR TARGETING DEGRADATION OF IRAK4 PROTEINS” (BIOGEN MA INC., priority 2021, published 2024).

By UniProt entry, the sequences of proteins in these tests, tags left out.
UniProt Q9NWZ3, whole entry: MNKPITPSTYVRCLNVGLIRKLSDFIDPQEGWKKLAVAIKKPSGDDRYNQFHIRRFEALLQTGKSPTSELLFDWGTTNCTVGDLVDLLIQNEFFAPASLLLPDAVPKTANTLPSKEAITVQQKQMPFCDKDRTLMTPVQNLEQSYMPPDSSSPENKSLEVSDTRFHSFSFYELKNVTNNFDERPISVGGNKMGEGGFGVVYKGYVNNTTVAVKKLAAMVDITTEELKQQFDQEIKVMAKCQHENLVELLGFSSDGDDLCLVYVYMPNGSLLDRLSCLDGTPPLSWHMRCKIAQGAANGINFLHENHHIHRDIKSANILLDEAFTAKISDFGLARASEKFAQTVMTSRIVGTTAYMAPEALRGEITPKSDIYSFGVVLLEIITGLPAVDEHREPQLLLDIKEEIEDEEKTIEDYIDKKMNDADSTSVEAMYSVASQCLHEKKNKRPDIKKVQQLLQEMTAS

Biological target: IRAK4 (Homo sapiens, UniProt Q9NWZ3)
Assay: IRAK4 Degradation Assay, HiBiT Method
Details: 293T cells expressing HiBiT-tagged IRAK4, 6 hours

| Compound | DC50 |
| --- | --- |
| CC(C)Oc1cc2nn([C@H]3CC[C@H](CNC4CCN(c5ncc(C6CCC(=O)NC6=O)cc5F)CC4)CC3)cc2cc1C(=O)Nc1cccn(C2CC2)c1=O (some centres unmarked) [Example 125, N-(1-cyclopropyl-2-oxo-1,2-dihydropyridin-3-yl)-2-((1r,4r)-4-(((1-(5-(2,6-dioxopiperidin-3-yl)-3-fluoropyridin-2-yl)piperidin-4-yl)amino)methyl)cyclohexyl)-6-isopropoxy-2H-indazole-5-carboxamide] | < 10 nM |
| CC(C)Oc1cc2nc(C3CCN(CC(=O)N4CCN(c5cc6c(cc5F)c(N5CCC(=O)NC5=O)nn6C)CC4)CC3)cn2cc1C(=O)Nc1cccc(C(F)(F)F)n1 | 10 to 100 nM |
